According to article PMC3401096 (Molecular Biosystems, 2009):

Substrate: O=C([O-])CCC(=O)C(=O)[O-].[Na+].[Na+]
Experiment: purified protein, by the assay type
Settings: other: substrate of JMJD2E, 50 mM HEPES pH 7.5, 0.01% Tween-20, 37.0 °C

B1: JMJD2E (Homo sapiens) (protein)
chain: MKSVHSSPQNTSHTIMTFYPTMEEFADFNTYVAYMESQGAHQAGLAKVIPPKEWKARQMYDDIEDILIATPLQQVTSGQGGVFTQYHKKKKAMRVGQYRRLANSKKYQTPPHQNFADLEQRYWKSHPGNPPIYGADISGSLFEESTKQWNLGHLGTILDLLEQECGVVIEGVNTPYLYFGMWKTTFAWHTEDMDLYSINYLHFGEPKTWYVVPPEHGQHLERLARELFPDISRGCEAFLRHKVALISPTVLKENGIPFNCMTQEAGEFMVTFPYGYHAGFNHGFNCAEAINFATPRWIDYGKMASQCSCGESTVTFSMDPFVRIVQPESYELWKHRQ
With B1 the Km was 14.0 ± 1.8 µM and the kcat was 0.174 ± 0.006 s⁻¹.
